Measurements taken from publication PMC8621208, “Antiseptic 9-Meric Peptide with Potency against Carbapenem-Resistant Acinetobacter baumannii Infection” (International Journal of Molecular Sciences, 2021).

Columns and labels:
[1] = system: sheep red blood cells (sRBC); assay: Hemolytic assay; assay type: cell-based; conditions: heparinized sheep red blood cells; 200 μM used when no detectable hemolysis at 100 μM
Method: The peptide-induced toxicity was determined by hemolytic against Sheep red blood cells (sRBC). Briefly, Fresh sRBC were washed at least three times with phosphate-buffered saline (PBS) and the debris were removed by centrifugation (1000× g for 5 min, 4 °C). All the peptides including melittin control (0.2–100 μM) and positive control (1% (v/v) triton X-100) were incubated with 4% (v/v) sRBC for 1 h at 37 °C followed by centrifugation at 1000× g for 5 min. The supernatant was measured at 405 nm using a microplate reader.

[2] = system: standard Gram-negative bacteria and carbapenem-resistant Gram-negative bacteria; assay: Mean MIC over all bacterial strains (GM) and selective index; assay type: cell-based; conditions: all 19 bacterial strains of Table 2
Method: (§1) The minimum inhibitory concentrations (MIC) were determined using broth dilution method. Briefly, all the mentioned bacterial strains were grown overnight at 37 °C by Muller–Hinton (MH) media. […] After 16 h incubation, the bacterial growth was read at 600 nm using a SpectraMAX microplate reader (Molecular Devices, San Jose, CA, USA).

P. aeruginosa = assay: MIC, broth dilution; assay type: cell-based, Pseudomonas aeruginosa KCCM 11328; conditions: 16 h, MH media
From the text: (§2) Escherichia coli KCTC 1682 was obtained from the Korean Collection for Type Cultures (KCTC) (Jeongeup-si, Korea), Acinetobacter baumannii KCCM 40203, Pseudomonas aeruginosa KCCM 11328 from the Korea Culture Center of Microorganisms (KCCM) (Seoul, Korea). Klebsiella pneumoniae NCCP 16054 were obtained from the National Culture Collection for Pathogens (NCCP) (Osong, Korea). Additionally, two carbapenem-resistant E. coli (CREC E1 and E2), 11 carbapenem-resistant A. baumannii (CRAB C0–C10) and two carbapenem-resistant K. pneumoniae (CRKP K1 and K2) were isolated from the patients, who presented symptoms and signs of infection at Korea University Anam Hospital (Seoul, Korea) (IRB registration no. 2020AN0157, 4 March 2021). CRAB C0–C10 have the OXA-23 gene with carbapenem-resistance.
as §1

E. coli = assay: MIC, broth dilution; assay type: cell-based, Escherichia coli KCTC 1682; conditions: 16 h, MH media
From the text: as §2, §1

SMILES: CC[C@H](C)[C@H](NC(=O)CN)C(=O)NCC(=O)N[C@@H](C)C(=O)N[C@H](C(=O)N[C@@H](CC(C)C)C(=O)N[C@@H](CCCCN)C(=O)N[C@H](C(=O)N[C@@H](CC(C)C)C(=O)N[C@H](C(=O)N[C@H](C(=O)NCC(=O)N[C@@H](CC(C)C)C(=O)N1CCC[C@H]1C(=O)N[C@@H](C)C(=O)N[C@@H](CC(C)C)C(=O)N[C@H](C(=O)N[C@@H](CO)C(=O)N[C@@H](Cc1c[nH]c2ccccc12)C(=O)N[C@H](C(=O)N[C@@H](CCCCN)C(=O)N[C@@H](CCCNC(=N)N)C(=O)N[C@@H](CCCCN)C(=O)N[C@@H](CCCNC(=N)N)C(=O)N[C@@H](CCC(N)=O)C(=O)N[C@@H](CCC(N)=O)C(N)=O)[C@@H](C)CC)[C@@H](C)CC)[C@@H](C)O)[C@@H](C)O)C(C)C)C(C)C [Melittin, reference compound]
- HC10 (peptide concentration inducing 10% hemolysis) [1]: 3.1 µM
- GM (geometric mean of MIC values of all bacterial strains) [2]: 13.1 µM
- Minimal Inhibitory Concentration (MIC) (P. aeruginosa): 16 µM
- Minimal Inhibitory Concentration (MIC) (E. coli): 8 µM
